From PubChem BioAssay AID743397 (Broad Institute, 2014)
The list shows a part of the results, in another mix than the full data. The source made the active and inactive calls.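 How the source made its calls: active means mean replicate inhibition of at least 30% and at least 1% of replicates passing that level; inconclusive means only one of the two criteria is met; inactive means neither criterion is met.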

Tested on: Voltage-dependent L-type calcium channel subunit alpha-1D (CaV1.3) ICDI/IQ interaction
Assay: Primary screen for inhibitors of IQ motif and Ca2+-dependent inactivation inhibitor domain binding in CACNA1D, Förster resonance energy transfer in living cells, single-concentration test (AID 743397);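 further: 0% = median of the neutral control wells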
Details: HEK cells, CFP/YFP FRET ICDI-IQ, plate reader, 10 min; at 12.3 µM; active compounds read high; percent FRET-ratio fall versus neutral wells

Compound	inhibition
C[C@H]1OP(=O)(Oc2ccccc2)[C@H](O)[C@H](O)[C@H]1N=[N+]=[N-] (stereo partly specified)	inactive: -11.2%
